Reference: publication PMC6728138 (2019)
“And” between values parts separate entries of the source, which are not always exact repeats. Identical values can stand only once.

Each binder was assayed against T1, calcineurin (CN) heterodimer, wild type: N-terminally 6-His-tagged human calcineurin A truncated at residue … (human | , UniProt Q08209 1-400; P63098 1-170).

Row | Binder | Kd
1 | ATDTTPSVVVHVCESD [RCAN1 PxIxIT peptide] | 270000 nM
2 | MAGPHPVIVITGPHEE [PVIVIT peptide (MAGPHPVIVITGPHEE)] | 2400 nM and 1300 nM
3 | PALESPRIEITSCLGL [NFATc1 PxIxIT peptide] | 115000 nM
4 | MAGPHPKIVITGPHEE [PKIVIT peptide (PVIVIT scaffold with V2K)] | 400 nM
5 | MAGPHPVIAVTGPHEE [PVIAVT variant of the PVIVIT peptide] | 320000 nM
6 | SPRIEITPSH [NFATc2 PxIxIT peptide (WT SPRIEITPSH)] | 6200 nM
7 | KRMEPIAIIITDTEIS [AKAP79 PxIxIT peptide (KRMEPIAIIITDTEIS)] | 24000 nM
8 | MAGPHPVIVINGPHEE [PVIVIN variant of the PVIVIT peptide] | 58000 nM

Target: T1, calcineurin (CN) heterodimer, wild …
Remark: another data set of the same source

Row | Binder | Kd
9 | MAGPHPVIAVTGPHEE [PVIAVT variant of the PVIVIT peptide] | 160000 nM

Target: T1, calcineurin (CN) heterodimer, wild …
Remark: another data set of the same source

Row | Binder | Kd
10 | MAGPHPVIVITGPHEE [PVIVIT peptide (MAGPHPVIVITGPHEE)] | 500 nM
11 | MAGPHPVIVITGPTEE (phosphothreonine at motif position 9) [PVIVIT peptide with phosphothreonine (Z) at position 9] | 20 nM
12 | MAGPHPKIVITGPHEE [PKIVIT peptide (PVIVIT scaffold with V2K)] | 610 nM
13 | AGPHPKIIITGPHEE [PKIVIT peptide with V4I (AGPHPKIIITGPHEE)] | 340 nM
14 | SPRIEITPSH [NFATc2 PxIxIT peptide (WT SPRIEITPSH)] | 25600 nM
15 | AGPIPKIVITGPHEE [PKIVIT peptide with I at position -1 (IPKIVITGPH)] | 70 nM
16 | SPRIEITASH [NFATc2 PxIxIT peptide with P7A] | 4050 nM
17 | KRMEPPKIIITDTEIS [AKAP79 PxIxIT peptide with I1 and A2 mutated (PPKIIIT), eGFP fusion] | 190 nM
18 | KRMEPIAIIITDTEIS [AKAP79 PxIxIT peptide (KRMEPIAIIITDTEIS)] | 1180 nM
19 | MAGPIPVIVITGPHEE [PVIVIT peptide with I at position -1] | 90 nM
20 | LPRIEITPSH [NFATc2 PxIxIT peptide with L at position -1 (LPRIEIT)] | 1100 nM
21 | MAGPHPRIVITGPHEE [PRIVIT peptide (PVIVIT scaffold with V2R)] | 330 nM
